Reference: ChEMBL document CHEMBL1153304, “2,4-Diaminopyridine delta-opioid receptor agonists and their associated hERG pharmacology” (Bioorg Med Chem Lett, 2009)

Protein sequences, listed by entry. Tags and fused reporters are not part of them.
UniProt P41143, whole entry: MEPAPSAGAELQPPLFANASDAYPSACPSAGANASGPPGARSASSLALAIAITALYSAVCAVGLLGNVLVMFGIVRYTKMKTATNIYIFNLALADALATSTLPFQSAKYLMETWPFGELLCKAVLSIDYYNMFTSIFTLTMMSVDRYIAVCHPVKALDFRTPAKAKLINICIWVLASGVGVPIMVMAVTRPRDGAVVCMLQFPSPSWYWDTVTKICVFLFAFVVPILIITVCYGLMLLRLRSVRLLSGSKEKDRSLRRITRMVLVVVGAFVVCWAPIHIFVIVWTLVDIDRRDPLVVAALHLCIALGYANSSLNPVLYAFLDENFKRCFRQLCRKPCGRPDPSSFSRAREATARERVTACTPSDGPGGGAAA

biological target: Delta-type opioid receptor (Homo sapiens, UniProt P41143); test: Agonist activity at delta opioid receptor expressed in CHO cells assessed as inhibition of forskolin-stimulated cAMP production by ALPHAscreen assay

SMILES	EC50 [nM]
COc1ccc(C(=O)N(c2cc(C)ccn2)C2CCN(c3cc(N)ccn3)CC2)cc1	9
CC(=O)N(c1ccccc1)C1CCN(c2cc(N)ccn2)CC1	207
COc1cccc(C(=O)N(c2ccccn2)C2CCN(c3cc(N)ccn3)CC2)c1	52
Nc1ccnc(N2CCC(N(C(=O)C3CC3)c3ccccn3)CC2)c1	108
Nc1ccnc(N2CCC(N(C(=O)C3CCCCC3)c3ccccn3)CC2)c1	30
